Literature values, collected in patent US20100137246A1, “Anti-inflammatory compositions and methods” (Searete LLC, a limited liability corporation of the State …, priority 2008, published 2010).

Sequences of proteins named here, by UniProt entry; tags and fusion partners are left off. Residues count along the entry.
UniProt P09619, 33-1106, species assumed: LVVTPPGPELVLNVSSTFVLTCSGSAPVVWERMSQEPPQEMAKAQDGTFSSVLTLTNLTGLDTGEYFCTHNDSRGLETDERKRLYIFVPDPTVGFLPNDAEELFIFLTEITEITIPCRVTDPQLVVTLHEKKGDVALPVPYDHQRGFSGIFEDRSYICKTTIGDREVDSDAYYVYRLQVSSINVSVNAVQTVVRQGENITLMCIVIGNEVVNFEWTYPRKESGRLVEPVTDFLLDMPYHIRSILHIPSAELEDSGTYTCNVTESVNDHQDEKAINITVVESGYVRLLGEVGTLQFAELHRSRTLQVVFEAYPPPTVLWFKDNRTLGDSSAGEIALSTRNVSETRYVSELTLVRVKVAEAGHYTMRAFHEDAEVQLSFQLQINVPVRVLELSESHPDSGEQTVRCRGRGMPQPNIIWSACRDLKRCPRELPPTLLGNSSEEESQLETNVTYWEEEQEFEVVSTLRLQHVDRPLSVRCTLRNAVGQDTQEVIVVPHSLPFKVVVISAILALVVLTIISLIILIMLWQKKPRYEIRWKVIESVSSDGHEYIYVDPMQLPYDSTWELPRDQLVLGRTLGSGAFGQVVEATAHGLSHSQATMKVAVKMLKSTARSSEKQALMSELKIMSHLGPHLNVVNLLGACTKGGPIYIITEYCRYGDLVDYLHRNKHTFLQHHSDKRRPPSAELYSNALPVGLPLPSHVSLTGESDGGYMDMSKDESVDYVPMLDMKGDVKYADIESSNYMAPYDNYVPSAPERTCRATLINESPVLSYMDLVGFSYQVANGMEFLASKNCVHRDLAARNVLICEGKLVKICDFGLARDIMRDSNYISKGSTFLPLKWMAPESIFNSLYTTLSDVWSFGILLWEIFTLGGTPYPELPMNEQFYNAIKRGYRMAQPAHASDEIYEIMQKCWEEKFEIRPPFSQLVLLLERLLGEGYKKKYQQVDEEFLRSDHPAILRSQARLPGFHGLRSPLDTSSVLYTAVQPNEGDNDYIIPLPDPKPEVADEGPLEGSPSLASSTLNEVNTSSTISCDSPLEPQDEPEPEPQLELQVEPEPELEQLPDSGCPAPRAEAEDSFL
UniProt P10721, 26-976: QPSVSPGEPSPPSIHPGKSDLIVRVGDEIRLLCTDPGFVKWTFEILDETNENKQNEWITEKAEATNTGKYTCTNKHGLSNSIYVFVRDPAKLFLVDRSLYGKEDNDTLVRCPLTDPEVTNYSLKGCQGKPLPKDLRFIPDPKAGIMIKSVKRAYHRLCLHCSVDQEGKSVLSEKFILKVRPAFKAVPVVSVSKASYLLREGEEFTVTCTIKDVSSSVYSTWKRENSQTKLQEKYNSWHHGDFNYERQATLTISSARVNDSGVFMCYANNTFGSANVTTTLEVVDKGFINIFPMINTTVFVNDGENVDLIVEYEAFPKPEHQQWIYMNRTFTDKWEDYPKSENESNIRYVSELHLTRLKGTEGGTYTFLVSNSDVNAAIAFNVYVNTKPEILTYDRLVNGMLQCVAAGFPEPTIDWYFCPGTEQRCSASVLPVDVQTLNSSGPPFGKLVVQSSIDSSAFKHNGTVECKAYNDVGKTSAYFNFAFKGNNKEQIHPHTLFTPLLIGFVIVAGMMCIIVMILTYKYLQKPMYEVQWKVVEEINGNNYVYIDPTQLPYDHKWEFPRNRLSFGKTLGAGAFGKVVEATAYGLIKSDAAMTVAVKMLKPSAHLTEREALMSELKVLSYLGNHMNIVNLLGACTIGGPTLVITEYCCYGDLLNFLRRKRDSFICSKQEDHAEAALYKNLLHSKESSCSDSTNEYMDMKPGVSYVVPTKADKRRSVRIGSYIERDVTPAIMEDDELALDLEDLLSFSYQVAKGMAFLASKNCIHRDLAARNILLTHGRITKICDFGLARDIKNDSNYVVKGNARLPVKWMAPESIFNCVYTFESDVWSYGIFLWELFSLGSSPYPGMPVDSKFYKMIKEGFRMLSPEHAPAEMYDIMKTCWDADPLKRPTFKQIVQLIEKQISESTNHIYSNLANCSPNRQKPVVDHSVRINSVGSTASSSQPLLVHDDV

How the values were obtained:
[1] = target: PDGFRβ (Homo sapiens, UniProt P09619); details: at nanomolar concentrations
[2] = target: c-Kit (Homo sapiens, UniProt P10721); details: at nanomolar concentrations

## Cc1nc(Nc2ncc(C(=O)Nc3c(C)cccc3Cl)s2)cc(N2CCN(CCO)CC2)n1.O [dasatinib, N-(2-chloro-6-methylphenyl)-2-[[6-[4-(2-hydroxyethyl)-1-piperazinyl]-2-methyl-4-pyrimidinyl]amino]-5-thiazolecarboxamide, monohydrate]
[1]
  inhibition of PDGFRβ: inhibits
[2]
  inhibition of c-Kit: inhibits
